# AlphaSeq binding of Ab-14 heavy chain variants to a spike HR2 peptide

Reference: Li et al. 2023, doi:10.1038/s41467-023-39022-2. File: FLAb, binding data.

The target is the same throughout: PDVDLGDISGINAS, from the HR2 region of SARS-CoV-2 spike.

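The starting antibody came from a phage panning campaign against this peptide. Designed CDR sequences, proposed from the first random library and measured here. Their group label is 14H_En_HC (En: ensemble of fine-tuned language models; HC: hill climbing; a sequence that several methods proposed may carry one label only). In AlphaSeq, yeast of one mating type display the scFv and yeast of the other type display the target. The frequency of each diploid, read from paired DNA barcodes, reflects how well the two displayed proteins bind. A regression on co-assayed BCL2-family reference pairs converts the normalised counts of each replicate to an apparent Kd. Each pool was mated in six replicate cultures.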

Each scFv is VH, the linker GGGGSGGGGSGGGGS, VL, as in the parent Ab-14, and differs from it in the CDRs of the heavy chain only.
VH: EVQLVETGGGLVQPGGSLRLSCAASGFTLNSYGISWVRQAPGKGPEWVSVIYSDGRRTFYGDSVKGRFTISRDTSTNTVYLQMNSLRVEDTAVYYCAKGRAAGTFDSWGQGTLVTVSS
VL: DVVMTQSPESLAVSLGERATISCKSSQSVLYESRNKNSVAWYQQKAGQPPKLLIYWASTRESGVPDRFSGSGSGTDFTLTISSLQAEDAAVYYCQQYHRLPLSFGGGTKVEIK

Variants are written as CDR1, CDR2 and CDR3 of the heavy chain (limits as in the source). Parent: GFTLNSYGIS, VIYSDGRRTFYGDSVK, GRAAGTFDS. Affinities are written as log10 Kd with Kd in nM; a lower number is a better binder. Averages over replicates are reported, and they cover detected replicates only. A pair that was not seen in that replicate is written "n.d."; this usually means weak binding, but a binder can also be missed. Of ten entries with the parent sequence, four were seen in most replicates (averages 0.34 to 2.37), three in one and three in none, so single entries are noisy. In the paper, a design with two or fewer of six values counts as a poor binder. The range of this assay differs from that of the first round, and the authors advise against merging the two. Nonspecific signal, from three strains lacking the peptide, appeared in 1% of pairings of all heavy chain designs, centred on 2.08 (5% of these signals below 0.84); values are not corrected for it. For each scFv, signals with the empty controls are counted beside the result, with their mean in brackets.

CDR-H1,CDR-H2,CDR-H3,"replicates, log10 nM",mean log10 Kd (nM),empty controls
GFDLNEYGIS,VIYADGRRTFYTDSVK,GEIAGIFDV,-0.14 / 0.04 / -0.10 / -0.20 / -0.13 / 0.13,-0.07,0 of 18
GFDLDEYGIS,VIYADGRRTFYADSVK,GQNAGTFTS,-0.08 / -0.29 / -0.07 / -0.15 / -0.06 / -0.13,-0.13,1 of 18 (0.96)
GFDLNEYGIS,VIYADGVRTQYIDSVK,GNVAGTFDS,0.03 / -0.50 / -0.61 / -0.80 / -0.56 / -0.18,-0.44,2 of 18 (1.72)
GFDLNEYGIS,VIYADGRRTFYTDSVK,GEFAGTFDK,0.05 / -0.31 / -0.29 / -0.32 / -0.24 / 0.04,-0.18,0 of 18
GFDLNEYGIS,VIYADGKRTFYADSVK,GNNAGTFDS,-0.19 / -0.59 / -0.58 / -0.73 / -0.65 / -0.58,-0.55,0 of 18
GFDLNEYGIS,VIYADGRRTQYIDSVK,GEVAGTFDI,0.40 / 0.05 / 0.20 / -0.07 / 0.22 / 0.51,0.22,0 of 18
GFDLDEYGIS,VIYADGRRTFYADSVK,GTLAGTFDL,-0.11 / -0.24 / -0.36 / -0.62 / -0.57 / -0.53,-0.40,0 of 18
GFDLDEYGIS,VIYADGRRTFYSDSVK,GQTAGTFDV,-0.45 / -0.24 / -0.56 / -0.71 / -0.64 / -0.29,-0.48,0 of 18
GFNLNEYGIS,VIYADGMRTFYSDSVK,GEAAGTFDV,-0.20 / -0.51 / -0.67 / -0.54 / -0.02 / -0.44,-0.40,0 of 18
GFDLNEYGIS,VIYADGRRTAYSDSVK,GQTGGTFDE,-0.09 / -0.45 / -0.01 / -1.05 / -0.44 / -0.27,-0.39,0 of 18
GFDLNEYGIS,VIYADGRRTAYIDSVK,GHIAGTFDS,-0.62 / -0.77 / -0.59 / -0.95 / -0.76 / -0.40,-0.68,1 of 18 (1.70)
GFDLNEYGIS,VIYADGRRTFYADSVK,GEVAGTFVI,0.88 / 1.46 / 0.95 / 0.67 / 1.74 / 0.45,1.02,0 of 18
GFDLNEYGIS,VIYADGMRTAYDDSVK,GQLAGTFDF,-0.31 / -0.89 / -1.06 / -0.95 / -0.48 / -0.54,-0.71,0 of 18
GFDLNEYGIS,VIYADGRRTFYTDSVK,GETAGTFDS,-0.42 / -0.34 / -0.19 / -0.46 / -0.45 / -0.15,-0.33,0 of 18
GFDLNEYGIS,VIYADGRRTQYSDSVK,GNEAGTFDS,0.53 / 0.23 / -0.19 / -0.45 / -0.34 / -0.26,-0.08,0 of 18
GFDLNEYGIS,VIYADGRRTAYVDSVK,GQLAGTFDT,-0.38 / -0.07 / -0.39 / -0.33 / -0.65 / -0.22,-0.34,0 of 18
GFDLNEYGIS,VIYADGRRTAYIDSVK,GYNAGTFDS,-0.17 / -0.48 / -0.18 / -0.67 / -0.54 / -0.20,-0.38,0 of 18
GFDLNEYGIS,VIYADGRRTFYSDSVK,GENAGTFDI,-0.23 / -0.37 / -0.38 / -0.37 / -0.48 / -0.57,-0.40,1 of 18 (2.15)
GFDLNEYGIS,VIYADGRRTFYADSVK,GKEAGTFDQ,-0.60 / -0.35 / -0.91 / -0.73 / -0.48 / -0.61,-0.61,0 of 18
GFNLNEYGIS,VIYADGRRTFYADSVK,GGEAGTFDV,-0.40 / -0.74 / -0.69 / -0.46 / -0.67 / -0.50,-0.58,0 of 18
GFDLNEYGIS,VIYADGRRTFYVDSVK,GEVAGIFNV,0.05 / -0.42 / -0.30 / -0.60 / 0.06 / -0.51,-0.29,0 of 18
GFDLNEYGIS,VIYADGMRTAYSDSVK,GNLAGTFDS,-0.33 / -0.27 / -0.48 / -0.73 / -0.33 / -0.38,-0.42,0 of 18
GFDLNEYGIS,VIYADGVRTFYSDSVK,GEVAGTFDV,-0.34 / -0.21 / -0.33 / -0.69 / -0.21 / -0.10,-0.31,1 of 18 (1.64)
GFDLNEYGIS,VIYADGRRTFYVDSVK,GKNAGTFDV,-0.14 / -0.41 / -0.43 / -0.35 / -0.35 / -0.21,-0.31,0 of 18
GFDLNEYGIS,VIYADGRRTFYSDSVK,GEAGGTFDM,0.15 / -0.45 / -0.17 / 0.06 / 0.03 / 0.20,-0.03,0 of 18
GFDLNEYGIS,VIYADGKRTFYTDSVK,GGNAGTFDV,-0.52 / -0.40 / 0.46 / -0.76 / -0.70 / 0.35,-0.26,0 of 18
GFDLNEYGIS,VIYADGVRTAYSDSVK,GEAGGTFDS,0.45 / 0.35 / 0.85 / 2.76 / 1.27 / 0.56,1.04,0 of 18
GFDLNEYGIS,VIYADGRRTFYTDNVK,GQNAGTFDA,-1.01 / -0.41 / n.d. / -0.99 / -0.51 / -0.77,-0.74,0 of 18
GFDLNEYGIS,VIYADGVRTFYTDSVK,GTNAGTFDV,-0.48 / -0.46 / -0.61 / -0.22 / -0.61 / -0.21,-0.43,0 of 18
GFDLNEYGIS,VIYADGRRTFYADSVK,GEAAGTFLV,-0.63 / 0.31 / -0.19 / 0.89 / -0.13 / 0.20,0.07,1 of 18 (1.62)
GFDLNEYGIS,VIYADGRRTFYQDSFK,GENAGTFDQ,-1.43 / -1.49 / -0.83 / -2.48 / -1.56 / -1.63,-1.57,0 of 18
GFDLNEYGIS,VIYADGQRTFYKDSVK,GTNGGTFDV,-0.51 / -0.56 / -1.10 / -1.02 / -0.56 / -0.72,-0.75,0 of 18
GFNLNEYGIS,VIYADGRRTAYADSVK,GQIAGTFIV,0.16 / 0.88 / 0.87 / 0.01 / 0.56 / 0.77,0.54,0 of 18
GFDLNEYGIS,VIYADGRRTAYSDSVK,GGNAGTFDE,-0.42 / -0.49 / -0.40 / -0.41 / -0.54 / -0.49,-0.46,1 of 18 (0.94)
GFDLNEYGIS,VIYADGKRTFYSDSVK,GTNAGTFDI,-0.33 / -0.73 / -0.50 / -0.60 / -0.60 / -0.23,-0.50,0 of 18
GFDLNEYGIS,VIYADGRRTFYSDSVK,GQVAGTFDK,1.36 / -1.51 / -1.96 / -1.07 / -1.22 / -1.10,-0.92,0 of 18
GFDLNEYGIS,VIYADGRRTFYTDSVK,GEIAGTFNV,-0.42 / -0.72 / -0.51 / -0.49 / -0.44 / -0.46,-0.51,0 of 18
GFDLNEYGIS,VIYADGVRTFYVDSVK,GETAGTFDN,0.16 / -0.53 / -0.67 / -0.75 / -0.51 / -0.46,-0.46,0 of 18
GFDLNEYGIS,VIYADGRRTFYIDSVK,GNEAGTFDV,-0.02 / -0.28 / -0.45 / -0.49 / -0.55 / -0.12,-0.32,0 of 18
GFDLNEYGIS,VIYADGRRTQYIDSVK,GNEAGTFDY,-0.60 / -0.72 / -0.63 / -0.35 / -0.35 / -0.62,-0.54,0 of 18
GFDLDEYGIS,VIYADGRRTFYADSVK,GGNAGTFDV,0.39 / -0.62 / -0.47 / -0.76 / -0.43 / -0.49,-0.40,0 of 18
GFELDEYGIS,VIYADGRRTFYQDSVK,GNVAGTFDS,-0.36 / -0.29 / -0.59 / -0.40 / -0.43 / -0.14,-0.37,0 of 18
GFDLNEYGIS,VIYADGRRTFYIDSVK,GEAAGTFDS,0.10 / -0.03 / -0.21 / -0.61 / -0.39 / -0.14,-0.21,0 of 18
GFDLNDYGIS,VIYADGRRTAYIDSVK,GEVAGTFDS,-0.21 / -0.45 / -0.07 / -0.47 / -0.24 / -0.09,-0.26,0 of 18
GFTLDEYGIS,VIYADGRRTFYQDSVK,GNVAGTFDV,0.62 / 0.39 / -0.04 / 0.24 / -0.12 / 0.28,0.23,1 of 18 (2.48)
GFDLNEYGIS,VIYADGRRTAYSDSVK,GGNAGTFDS,0.88 / 0.94 / 1.13 / 1.02 / 1.37 / 1.07,1.07,0 of 18
GFDLESYGIS,VIYADGRRTFYSDSVK,GENAGTFDV,0.30 / 0.19 / -0.07 / 0.13 / 0.07 / 0.38,0.17,2 of 18 (2.45)
GFDLNEYGIS,VIYADGRRTFYADSVK,GEIAGTFKV,-0.24 / -0.14 / -0.66 / -0.57 / -0.38 / -0.36,-0.39,1 of 18 (2.26)
GFDLNEYGIS,VIYADGRRTFYSDSVK,GTNGGTFDM,-0.05 / 0.27 / 0.29 / 0.49 / 0.65 / 0.41,0.34,0 of 18
GFDLDEYGIS,VIYADGRRTFYADSVK,GETAGTFDI,-0.24 / -0.01 / -0.28 / -0.28 / 0.12 / 0.35,-0.06,0 of 18
GFDLEDYGIS,VIYADGRRTFYSDSVK,GENAGTFDI,-0.01 / -0.41 / -0.26 / -0.32 / -0.25 / -0.16,-0.23,0 of 18
GFDLNEYGIS,VIYADGMRTFYSDSVK,GTNAGTFDM,-0.23 / -0.56 / -0.44 / -0.34 / -0.37 / -0.18,-0.35,0 of 18